In the assay the target is T1, butyrylcholine esterase of human serum origin (Homo sapiens, UniProt P06276).
T1 construct: butyrylcholine esterase of human serum origin; purchased Biogenesis, Poole, UK; host or cells: human serum
As to the kind of experiment: biochemical. The method, then:
The AChE inhibitory activity and the BuChE inhibitory activity were determined by a thiocholine method (Ellman method) using acetylcholine esterase of human erythrocyte origin (Sigma, St. Louis, Mo., USA) and butyrylcholine esterase of human serum origin (Biogenesis, Poole, UK). Acetylcholine esterase or butyrylcholine esterase was diluted to a concentration of 0.2 IU/mL with 80 mM tris-HCL buffers (pH=7.4) containing 0.3% bovine serum albumin (BSA) to prepare an enzyme preparation. […]. The stock solution was diluted at 3-fold common ratio with 10% DMSO and 80 mM tris-HCl buffers containing 0.3% BSA. […] Thereto, 50 μL of 5 mM 5,5-dithio-bis(2-nitrobenzoic acid) (Sigma, St. Louis, Mo., USA) and 50 μL of 4 mM acetylthiocholine iodide (Sigma) or 4 mM butyrylthiocholine chloride were added and shaken again, and then the increase of light absorption at 412 nm was immediately measured at 30 second-intervals for 10 minutes with a microplate reader (Spectra rainbow thermo, TECAN, Austria). […] The % of control of the increase in light absorption was calculated at each concentration with respect to the respective drugs. % of control=increase in light absorption of drug/increase in light absorption of control×100

Chains of the proteins cited; added tags and fusions are not shown. Residues count along the entry.
UniProt P06276, 29-602: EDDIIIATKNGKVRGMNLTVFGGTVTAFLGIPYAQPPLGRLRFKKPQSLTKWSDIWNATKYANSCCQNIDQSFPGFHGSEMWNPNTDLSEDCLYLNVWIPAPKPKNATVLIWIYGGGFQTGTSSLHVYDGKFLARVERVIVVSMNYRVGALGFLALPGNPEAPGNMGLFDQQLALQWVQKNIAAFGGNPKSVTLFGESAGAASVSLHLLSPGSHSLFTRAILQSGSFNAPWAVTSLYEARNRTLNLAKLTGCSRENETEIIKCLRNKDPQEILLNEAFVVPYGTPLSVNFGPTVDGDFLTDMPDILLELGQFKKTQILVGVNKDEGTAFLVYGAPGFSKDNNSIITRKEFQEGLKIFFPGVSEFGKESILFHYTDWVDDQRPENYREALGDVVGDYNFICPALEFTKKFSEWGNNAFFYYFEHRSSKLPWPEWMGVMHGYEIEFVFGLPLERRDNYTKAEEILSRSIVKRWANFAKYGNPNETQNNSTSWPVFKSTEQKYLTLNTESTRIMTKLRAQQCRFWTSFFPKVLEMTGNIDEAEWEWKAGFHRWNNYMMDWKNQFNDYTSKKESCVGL

Turning to `CC(C)NP(=O)(NC(C)C)OP(=O)(NC(C)C)NC(C)C` [iso-OMPA, tetraisopropylpyrophosphoramide], 3.2 µM corresponded to half-maximal inhibition (IC50).

The record behind these values is US20070021391A1, “Preventive/remedy for urinary disturbance” (priority 2003, published 2007).
